Reference: US10604555B2, “GIP derivatives and uses thereof” (priority 2018, dated 2020)

Protein sequences, listed by entry. Tags and fused reporters are not part of them. Residues count along the entry.
UniProt P43220, 24-463: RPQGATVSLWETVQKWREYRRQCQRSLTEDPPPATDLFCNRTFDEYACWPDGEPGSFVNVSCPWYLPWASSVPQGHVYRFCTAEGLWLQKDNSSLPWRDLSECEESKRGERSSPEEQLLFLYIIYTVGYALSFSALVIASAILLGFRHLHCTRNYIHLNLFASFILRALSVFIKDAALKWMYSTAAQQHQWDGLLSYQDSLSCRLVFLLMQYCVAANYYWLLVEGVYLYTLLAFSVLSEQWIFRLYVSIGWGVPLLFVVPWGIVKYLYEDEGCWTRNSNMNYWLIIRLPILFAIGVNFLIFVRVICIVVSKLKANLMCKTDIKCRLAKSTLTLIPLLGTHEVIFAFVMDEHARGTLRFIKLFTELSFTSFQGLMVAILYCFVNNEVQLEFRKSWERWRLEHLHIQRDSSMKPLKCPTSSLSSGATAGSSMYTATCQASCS

Assays:
[1] = Pharmacokinetic study in minipigs, terminal half-life after i.v. administration; type: in vivo, Göttingen minipigs; details: usually 5 nmol/kg
[2] = ThT fibrillation assay (physical stability); type: physicochemical; details: 250 μM, pH 7.4, 37° C., 45 hours of incubation
Experimental: The Thioflavin T assay was performed as outlined in Schlein (2017), AAPS J, 19(2), 397-408.
Low physical stability of a peptide may lead to amyloid fibril formation, which is observed as well-ordered, thread-like macromolecular structures in the sample, which eventually may lead to gel formation. This has traditionally been measured by visual inspection of the sample. However, that kind of measurement is very cumbersome and depending on the observer. Therefore, the application of a small molecule indicator probe is much more advantageous. Thioflavin T (ThT) is such a probe and has a distinct fluorescence signature when binding to fibrils [Naiki et al. (1989) Anal. Biochem. 177, 244-249; LeVine (1999) Methods. Enzymol. 309, 274-284].
The time course for fibril formation can be described by a sigmoidal curve with the following expression [Nielsen et al. (2001) Biochemistry 40, 6036-6046]:
Here, F is the ThT fluorescence at the time t. The constant t0 is the time needed to reach 50% of maximum fluorescence. The two important parameters describing fibril formation are the lag-time calculated by t0−2τ and the apparent rate constant kapp 1/τ.
Few of those intermediates nucleate to form a template onto which further intermediates may assembly and the fibrillation proceeds. The lag-time corresponds to the interval in which the critical mass of nucleus is built up and the apparent rate constant is the rate with which the fibril itself is formed.
Samples are prepared freshly before each assay. […]
Incubation, shaking and measurement of the ThT fluorescence emission were done in a Fluoroskan Ascent FL fluorescence platereader (Thermo Labsystems). […] Fluorescence measurement was done using excitation through a 444 nm filter and measurement of emission through a 485 nm filter. […]
Each run was initiated by incubating the plate at the assay temperature for 10 min. The plate was measured every 20 minutes for a desired period of time. […]
The data set may be fitted to Eq. (1). […] No increase in ThT fluorescence during the duration of the assay was reported as a lag time of 45 hours.

[3] = Chemical stability: HMWP formation by SEC-MS; type: physicochemical; details: 37° C., 4 weeks, 250 μM, pH 7.4
Experimental: The aim of this study is to determine the chemical stability of GIP derivative compositions. As a measure of stability of the GIP derivative composition, the formation of high molecular weight peptide formation (% HMWP) as a function of time was analysed by size-exclusion chromatography (SEC-MS). Further, the purity loss of the GIP derivative compositions was measured by LCMS. Samples for chemical stability assays were freshly prepared before each assay. […] The pH of the sample was adjusted to the desired value using appropriate amounts of concentrated NaOH and HCl. […] Formation of covalent oligomers (HMWPs) was analysed and identified by a SEC-MS method. […] The LC system was coupled to both a TUV detector operated at 215 nm, 10 Hz and a high resolution QToF mass spectrometer from Waters (Synapt G2S) operated in positive ion mode and m/z range of 100 to 4000 with normal resolution setting. Lock mass correction against Leu-Enkephalin was done every 31 sec. Spectra were processed in MassLynx version 4.1 and MaxEnt deconvoluted.

[4] = Chemical stability: purity loss by LCMS; type: physicochemical; details: 37° C., 4 weeks, 250 μM, pH 7.4
Experimental: The aim of this study is to determine the chemical stability of GIP derivative compositions. As a measure of stability of the GIP derivative composition, the formation of high molecular weight peptide formation (% HMWP) as a function of time was analysed by size-exclusion chromatography (SEC-MS). Further, the purity loss of the GIP derivative compositions was measured by LCMS. Samples for chemical stability assays were freshly prepared before each assay. […] The pH of the sample was adjusted to the desired value using appropriate amounts of concentrated NaOH and HCl. […] The column oven was kept at 55° C. […] The solvents were pumped from a binary solvent manager system and mixed on the high pressure side in a mixer with a volume of 50 μl. The gradient and flow can be seen in table 4: [table] A Flow-through-needle auto sampler at 8° C. was used to inject 1 μl of each sample. The effluent passed through a tunable UV detector (TUV) tuned to 215 nm. The outlet from the UV detector passed to the electrospray source of the mass spectrometer. The capillary was held at 3 kV and dry nitrogen gas was purged at a flow of 750 I/h and a temperature of 250° C. The source block was kept at 120° C. and the large bore cone was flushed with nitrogen at 50 I/h with standard electrode potentials on the rest of the instrument. The MS was operated in high resolution mode with a nominal resolution of 35000. The ToF analyser was operated in ADC mode with an m/z window from 100-2000.

human GLP-1 receptor = target: T1, human GLP-1 receptor (Homo sapiens, UniProt P43220); assay: In vitro potency (CRE luciferase; whole cells), BHK CRE luc2P hGLP-1R; type: cell-based; details: read-out: hGLP-1-R, CRE Luc EC50 (pM), assay performed in presence of 1% HSA, 1% HSA (values marked *)
T1 construct: expressed in transfected cells; host or cells: BHK (parent line BHKTS13), BHK CRE luc2P hGLP-1R clone #6
Experimental: In Vitro Potency (CRE Luciferase; Whole Cells)
The in vitro potency is the measure of human GIP, GLP-1 or glucagon receptor activation, respectively, in a whole cell assay.
In vitro potency was determined by measuring the response of the human GIP, GLP-1 or glucagon receptor in a reporter gene assay in individual cell lines. […] When the respective receptor is activated it results in the production of cAMP, which in turn results in the luciferase protein being expressed. When assay incubation is completed the luciferase substrate (luciferin) is added and the enzyme converts luciferin to oxyluciferin to produce bioluminescence. The luminescence is measured as the readout for the assay.
The cells were derived from a clone containing the CRE luciferase element and were established by further transfection with the respective receptor to obtain the current clone.
The cells were cultured at 5% CO2 in Cell Culture Medium. They were aliquoted and stored in liquid nitrogen. The cells were kept in passage and were seeded out the day before each assay. […]
4) Stocks of the test compounds and reference compounds were diluted to a concentration of 0.2 μM in Assay Buffer. […] 11) Each assay plate was read in a microtiter plate reader. […]
The data from the microtiter plate reader was transferred to GraphPad Prism software. […]
A minimum of two replicates was measured for each sample. […]

Substance | t1/2 (hours) harmonic mean [1] | ThT Assay Lag time [2] | HMWP formation (%/month) [3] | Purity loss (%/month) [4] | EC50 (human GLP-1 receptor)
N{1}-acetyl,N{Epsilon-24}-[(4S)-4-carboxy-4-[[(4S)-4-carboxy-4-[[(4S)-4-carboxy-4-[[4-[(19-carboxynonadecanoylamino)methyl]cyclohexanecarbonyl]amino]butanoyl]-amino]butanoyl]amino]butanoyl]-[D-Tyr1,Nle14,Arg18,Glu20,Lys24]-hGIP(1-31) [Compound 23] | 119 h | >45 h | 0.40 %/month | 1.60 %/month | –
N{1}-acetyl,N{Epsilon-24}-[(4S)-4-carboxy-4-[[(4S)-4-carboxy-4-[[(4S)-4-carboxy-4-[[4-[(19-carboxynonadecanoylamino)methyl]cyclohexanecarbonyl]amino]butanoyl]-amino]butanoyl]amino]butanoyl]-[D-Tyr1,Nle14,Arg18,Aib20,Lys24]-hGIP(1-31) [Compound 25] | 125 h | >45 h | 0.40 %/month | 2.00 %/month | > 10000 pM
N{1}-acetyl,N{Epsilon-24}-[(4S)-4-carboxy-4-[[(4S)-4-carboxy-4-[[(4S)-4-carboxy-4-[[(4S)-4-carboxy-4-[[4-[(19-carboxynonadecanoylamino)methyl]cyclohexanecarbonyl]-amino]butanoyl]amino]butanoyl]amino]butanoyl]amino]butanoyl]-[D-Tyr1,Nle14,Arg18,Lys24]-hGIP(1-31) [Compound 30] | 99 h | >45 h | 0.10 %/month | 1.14 %/month | –
